One substance from article PMC3818563, “Effect of Iboga Alkaloids on µ-Opioid Receptor-Coupled G Protein Activation” (PLoS ONE, 2013) can be followed below.

The chains behind the UniProt entries cited, without tags or fusion partners.
UniProt P33535, whole entry: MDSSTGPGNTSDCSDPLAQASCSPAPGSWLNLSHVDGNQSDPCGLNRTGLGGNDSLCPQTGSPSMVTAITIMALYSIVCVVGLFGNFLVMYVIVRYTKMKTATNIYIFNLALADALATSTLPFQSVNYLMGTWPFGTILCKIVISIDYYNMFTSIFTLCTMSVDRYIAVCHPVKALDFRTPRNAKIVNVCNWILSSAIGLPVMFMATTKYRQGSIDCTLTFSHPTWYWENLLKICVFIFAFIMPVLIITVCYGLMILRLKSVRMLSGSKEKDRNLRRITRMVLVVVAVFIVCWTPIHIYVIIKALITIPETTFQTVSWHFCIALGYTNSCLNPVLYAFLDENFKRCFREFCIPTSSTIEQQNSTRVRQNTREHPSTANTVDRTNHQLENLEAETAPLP

This assay deals with μ-opioid receptor (MOR) (Rattus norvegicus, UniProt P33535). Put plainly: [35S]GTPγS binding in Sprague-Dawley rat thalamic membranes (Reith lab). In kind it is biochemical. Also on record: from tissue; host or cells: rat thalamus membranes (Sprague-Dawley; also Fischer F344 in the Janowsky lab). In general terms: GTPγS resists hydrolysis and so accumulates on activated G proteins.

“And” between values parts separate entries of the source, which are not always exact repeats. Equal entries are not always repeated.

Ibogaine HCl: the Ki (read-out: Antagonist activity Ke (functional Ki)) was 3 µM and 3.05 µM. Further, the IC50 (read-out: IC50 for inhibition of the stimulatory response evoked by DAMGO) stood at 19.3 ± 4.3 µM.

Broadly, the Ki is a dissociation constant, usually derived from enzyme kinetics or from competition with a known ligand. The IC50 is the concentration that inhibits the measured activity by half.
